For the test, the system named is brain H3 receptors. As to the kind of experiment: PET imaging of [18F]9 in monkey. The following applies: rhesus monkey, in vivo.

Values joined by “and” are separate entries in the source; they are usually repeats but may differ in a detail not shown here. Equal values may be shown once.

In the case of `C[C@@H]1CCCN1CCc1cc2cc(C(=O)c3ccc(F)cc3)ccc2o1` [Compound 9, (R)-(2-(2-(2-methylpyrrolidin-1-yl)ethyl)benzofuran-5-yl)(4-fluorophenyl)methanone], the “Mean Vt decrease” value was -58% and -52% and -54% and -53% and -49%; the “reduction of VT” value was 49—58%.

(Values after paper PMC3303611 (Journal of Medicinal Chemistry, 2012).)
